In PubChem BioAssay AID2147 (National Center for Advancing Translational Sciences (NCATS), 2009) one finds Potency data, which are given here for 116 molecules.

Chains of the proteins cited; added tags and fusions are not shown. Lines headed by an entry give the natural chain unless they say otherwise; changes in a name come on top.
UniProt B2RXH2: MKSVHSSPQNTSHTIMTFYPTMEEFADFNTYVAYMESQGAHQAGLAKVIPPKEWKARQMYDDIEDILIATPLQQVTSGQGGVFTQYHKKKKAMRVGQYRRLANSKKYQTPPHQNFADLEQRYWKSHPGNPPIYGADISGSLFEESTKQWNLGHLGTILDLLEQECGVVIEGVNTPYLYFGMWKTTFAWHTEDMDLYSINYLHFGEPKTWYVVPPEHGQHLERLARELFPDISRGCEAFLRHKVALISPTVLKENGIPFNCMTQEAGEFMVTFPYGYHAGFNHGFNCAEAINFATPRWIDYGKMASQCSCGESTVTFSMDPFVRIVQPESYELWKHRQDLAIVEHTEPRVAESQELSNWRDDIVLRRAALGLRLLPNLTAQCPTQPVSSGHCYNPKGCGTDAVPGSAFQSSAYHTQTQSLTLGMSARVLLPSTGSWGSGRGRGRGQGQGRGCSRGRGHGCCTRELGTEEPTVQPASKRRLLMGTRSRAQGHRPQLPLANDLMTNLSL

The entries are a selection whose mix differs from that of the whole data set. Records with an inconclusive call do not appear. Entries that show only a call come without a potency. Calls of active or inactive are those of the source. Calls follow the shape of the dose curve; as a rule, active = well fitted inhibition curve with a large enough effect (not every such curve was filed as active); inconclusive = small, poorly fitted or top-dose-only effect, or another doubt; inactive = no such curve, though single readings can be large or run the other way.
Also: nearly all actives have a fitted effect of over 50% in size.
Potency is read from the fitted curve at half-maximal effect.

The experiment concerns the target Lysine-specific demethylase 4E (Homo sapiens) (UniProt B2RXH2). Kind of experiment: qHTS Assay for Inhibitors of Human Jumonji Domain Containing 2E (JMJD2E). Particulars: JMJD2E catalytic domain, FDH-coupled NADH fluorescence (FDH is formaldehyde dehydrogenase); series mostly up to 57.1 µM. On the technique in general: Quantitative high-throughput screening tests each substance at several concentrations.
Take `CC1CCC(C(C)C)C(OP(=O)(Nc2ccccn2)c2ccccc2)C1` (stereo unspecified): the Potency result is “inactive”.
For the molecule `Cc1nn(-c2ccccc2)c2c1P(=O)(N1CCOCC1)N(C)C(c1ccccc1)=N2` (stereo unspecified), the Potency result is “inactive”.
As to `CN(C)C1(CNC(=O)c2ccc(S(C)(=O)=O)cc2)CCCCC1`, the Potency entry was “inactive”.
With `O=C(/C=C/c1ccccc1)OC1CN2CCC1CC2` (stereo unspecified), the Potency entry is “inactive”.
Regarding `O=P1(Nc2ncccn2)COc2ccccc2OC1`, the Potency entry was “inactive”.
For the molecule `Nc1cccc([As](=O)(O)c2ccccc2)c1`, the Potency result is “inactive”.
Take `Cc1ccc(OCC(=O)OC2CN3CCC2CC3)cc1` (stereo unspecified): the Potency entry was “inactive”.
In the case of `O=[As](O)(c1cccs1)c1cccs1` it was “inactive”.
For `O=P1(Nc2ccc(Br)cn2)COc2ccccc2OC1`, the Potency entry was “inactive”.
With `O=P1(Nc2ccccn2)COc2ccccc2OC1`, the Potency entry is “inactive”.
With `CN(CCCl)Cc1cc(Cl)c(NC2=NCCN2)c(Cl)c1` the entry was “inactive”; with `CC(C)(C)C(=O)NC(Sc1ncccn1)C(Cl)(Cl)Cl` (stereo unspecified), “inactive”; with `Clc1n[nH]nc1-c1nn[nH][15n]1`, “inactive”.
For the molecule `CC(C)/C=N\N=C(\N)N[N+](=O)[O-]`, the Potency result was “inactive”.
In the case of `CN(C(=O)Cc1ccc(Cl)c(Cl)c1)[C@@H]1CCCC[C@H]1N1CCCC1` it was “inactive”; in that of `O=[As](O)(c1ccccc1Br)c1ccccc1Br`, “inactive”.
For the molecule `CN(C(=O)Cc1ccc(Cl)c(Cl)c1)[C@@H]1CC[C@]2(CCCO2)C[C@H]1N1CCCC1`, the Potency entry was “inactive”.
Consider `O=C(OC1CN2CCC1CC2)c1ccc(Cl)cc1` (stereo unspecified), for which the Potency result is “inactive”.
Consider `O=[As](O)(O)c1cccnc1`, for which the Potency entry is “inactive”.
As for `COc1cc(C(=O)NCC2(N3CCOCC3)CCCCC2)cc(Cl)c1OC(C)C`, the Potency entry was “inactive”.
`Cc1cccc(OCC(=O)OC2CN3CCC2CC3)c1` (stereo unspecified): the Potency entry was “inactive”.
As to `O=[As](O)(c1cccc(O)c1)c1cccc(O)c1`, the Potency entry is “inactive”.
As for `Cc1ccc(NCCc2c([N+](=O)[O-])cc([N+](=O)[O-])cc2[N+](=O)[O-])cc1`, the Potency entry was “inactive”.
Consider `CCCOP(=S)(Nc1nc(N)cc(=O)[nH]1)OCCC`, for which the Potency result is “inactive”.
With `COc1cc(C2NCCC3(OCCO3)C2(C)C)cc(OC)c1OC` (stereo unspecified) the entry was “inactive”; with `O=P(Nc1nccs1)(Oc1ccccc1)Oc1ccccc1`, “inactive”; with `O=P(Nc1nccs1)(c1ccccc1)c1nc2ccccc2s1` (stereo unspecified), active: 7.94 µM.
With `CCOP1(=S)c2c(C)nn(CCC#N)c2N=C(c2ccccc2F)N1C` (stereo unspecified), the Potency entry is “inactive”.
With `CS(=O)(=O)c1cc([N+](=O)[O-])c2no[n+]([O-])c2c1` the figure was active: 10 µM; with `Nc1ccccc1[As](=O)(O)c1ccccc1`, “inactive”; with `O=C(O)COc1ccc([As](=O)(O)O)cc1[N+](=O)[O-]`, “inactive”.
As for `O=[N+]([O-])CC(O)c1ccc([N+](=O)[O-])cc1` (stereo unspecified), the Potency entry was “inactive”.
As to `NC(=O)Nc1ccc([As](=O)(O)O)cc1`, the Potency result is “inactive”.
In the case of `CN(C(=O)Cc1ccccc1)[C@@H]1CC[C@]2(CCCO2)C[C@H]1N1CCCC1` it was “inactive”; in that of `CCOP1(=S)c2c(C)nn(CCC#N)c2N=C(c2ccc(F)cc2)N1C` (stereo unspecified), “inactive”.
As to `O=[N+]([O-])c1ccc2c(c1)nnn2O`, the Potency entry was “inactive”.
`O=[As](O)(c1ccc(O)cc1)c1ccccc1O`: the Potency entry is “inactive”.
Turning to `C[As](=O)(O)c1cccc(C(=O)O)c1`, the Potency entry is “inactive”.
For the molecule `Cc1ccc(OP(=O)(Nc2ccc([N+](=O)[O-])cn2)Oc2ccc(C)cc2)cc1`, the Potency entry is “inactive”.
As to `Cc1ccc2nc3c(c(C)c2c1)CC(C(Cl)Cl)S3` (stereo unspecified), the Potency entry was “inactive”.
In the case of `ClCCSc1nnc(-c2cccnc2)o1` it was “inactive”.
For `O=[N+]([O-])c1cc([N+](=O)[O-])c(-c2ccn[nH]2)s1`, the Potency entry is “inactive”.
As for `CC(C)NC(=O)NP(=O)(Oc1ccccc1)Oc1ccccc1`, the Potency entry was “inactive”.
Take `CCN(CC)C(=S)SC(NC=O)C(Cl)(Cl)Cl` (stereo unspecified): the Potency result is “inactive”.
As to `Cc1c2c(nc3ccccc13)SC(C(Cl)Cl)C2` (stereo unspecified), the Potency entry is “inactive”.
Regarding `Cc1cc(=O)[nH]c(N[N+](=O)[O-])n1`, the Potency result was “inactive”.
As to `O=C(OC1CN2CCC1CC2)C12CC3CC(CC(C3)C1)C2` (stereo unspecified), the Potency entry was “inactive”.
On to `COc1cc(I)ccc1[As](=O)(O)O`, for which the Potency entry is “inactive”.
For the molecule `COc1ccc2nc(NP(=O)(c3ccccc3)c3ccccc3)sc2c1`, the Potency result was “inactive”.
For the molecule `COc1ccc(N/C(=N/P(=O)(N2CCOCC2)N2CCOCC2)N2CCOCC2)cc1`, the Potency entry is “inactive”.
With `COP1(=S)c2c(C)nn(CCC#N)c2N=C(c2ccc(F)cc2)N1C` (stereo unspecified) the entry was “inactive”; with `O=C(COc1ccccc1)OC1CN2CCC1CC2` (stereo unspecified), “inactive”; with `CCOC(=O)c1ccc(NC(=O)C(C)(CCl)SC)cc1` (stereo unspecified), “inactive”.
With `CCC(C)N(CC(C)C)C(=S)SC(NC(C)=O)C(Cl)(Cl)Cl` (stereo unspecified) the entry was “inactive”.
Turning to `CCOC(=O)Nc1ccc([As](=O)(O)O)c(O)c1`, the Potency result was “inactive”.
For `CCOC(=O)Nc1cccc([As](=O)(O)O)c1`, the Potency result was “inactive”.
On to `O=[N+]([O-])c1ccc(Nc2ccc(Oc3ccc([N+](=O)[O-])cc3[N+](=O)[O-])cc2)c([N+](=O)[O-])c1`, for which the Potency entry was “inactive”.
With `O=C(Nc1cc([As](=O)(O)O)ccc1O)c1ccccc1` the entry was “inactive”; with `O=[N+]([O-])c1ncn(CCn2ncnc2[N+](=O)[O-])n1`, “inactive”; with `O=C(O)CNc1ccc([As](=O)(O)O)cc1`, “inactive”.
Consider `O=[N+]([O-])c1cccc(NC2=NCC(CBr)S2)c1` (stereo unspecified), for which the Potency result is “inactive”.
Turning to `COc1ccc(C2=NCC(CBr)S2)cc1` (stereo unspecified), the Potency was active: 25.1 µM.
Consider `CCc1nc2c(n1)c1c(non1O)c1c2no[n+]1[O-]`, for which the Potency entry is “inactive”.
Consider `O=[N+]([O-])c1cc([N+](=O)[O-])c(CCNc2ccccc2)c([N+](=O)[O-])c1`, for which the Potency result was “inactive”.
Consider `O=[N+]([O-])c1cccc2n[nH]nc12`, for which the Potency result is “inactive”.
For `CC(=O)N1C2C3N(C(C)=O)C1C1N(C(C)=O)C(C(N1C(C)=O)N3C(C)=O)N2C(C)=O`, the Potency entry is “inactive”.
As for `CCN(/C(=N/P(=O)(N1CCOCC1)N1CCOCC1)N1CCOCC1)c1ccc(OC)cc1`, the Potency entry is “inactive”.
On to `Nc1ccc([As](=O)(O)c2ccc(N)cc2)cc1`, for which the Potency entry is “inactive”.
As for `CC1CCN(C(=O)Oc2c(Cl)cc(Cl)c3cccnc23)CC1`, the Potency result was “inactive”.
Take `CN(C)C(=O)OCCc1n(C)cc[n+]1C`: the Potency result was “inactive”.
On to `CC(C)=N/N=C(\N)N[N+](=O)[O-]`, for which the Potency result was “inactive”.
Take `Cc1ccc(N/C(=N/P(=O)(N2CCOCC2)N2CCOCC2)N2CCOCC2)cc1`: the Potency result is “inactive”.
In the case of `NC(=O)c1cc([N+](=O)[O-])cc([N+](=O)[O-])c1N` it was “inactive”; in that of `CN1CCCC(OC(=O)C(c2ccccc2)c2ccccc2)C1` (stereo unspecified), “inactive”; in that of `Clc1ccc(Cl)c(NC2=NCC(CBr)S2)c1` (stereo unspecified), “inactive”.
Consider `Cc1ccc(OP(=O)(Nc2nccs2)Oc2ccc(C)cc2)cc1`, for which the Potency result was “inactive”.
Regarding `Cc1c2non([O-])c-2c(C)[n+](=O)[n+]1[O-]`, the Potency result was “inactive”.
Consider `Oc1ccccc1CNc1ccccn1`, for which the Potency result is “inactive”.
Turning to `Nc1cc(N)c2nonc2c1[N+](=O)[O-]`, the Potency result was “inactive”.
On to `CC(C)CC(=O)NC(Sc1ccc(Cl)cc1)C(Cl)(Cl)Cl` (stereo unspecified), for which the Potency entry is “inactive”.
Turning to `O=P(Nc1nc2ccc(Cl)cc2s1)(c1ccccc1)c1ccccc1`, the Potency result was “inactive”.
For `CC(=O)Nc1ccc([As](=O)(O)O)cc1`, the Potency entry is “inactive”.
With `O=C(O)c1ccccc1[As](=O)(O)O` the entry was “inactive”; with `CN(C(=O)Cc1ccc(Cl)c(Cl)c1)[C@H]1CCCC[C@@H]1N1CCCC1`, “inactive”; with `CCOP(=O)(Nc1ccccc1)OCC`, “inactive”.
Take `CCN(N=Nc1nonc1N)c1nonc1N`: the Potency result is “inactive”.
For the molecule `Cc1ccc(NP(=O)(Oc2cccc(C)c2)Oc2cccc(C)c2)nc1`, the Potency entry was “inactive”.
`CCOC(=O)NC(Sc1ccccc1)C(Cl)(Cl)Cl` (stereo unspecified): the Potency result is “inactive”.
In the case of `c1ccc(-c2nn[nH]n2)c(-c2nn[nH]n2)c1` it was “inactive”; in that of `CCNC(=S)/N=C(\N)N[N+](=O)[O-]`, “inactive”; in that of `O=C(NC1CCS(=O)(=O)C1)NP(=S)(Oc1ccccc1)Oc1ccccc1` (stereo unspecified), “inactive”.
As for `CCC(=O)N1C2C3N(C(=O)CC)C1C1N(C(=O)CC)C(C(N1C(=O)CC)N3C(=O)CC)N2C(=O)CC`, the Potency entry was “inactive”.
`CN(C(=O)Cc1ccc(Cl)c(Cl)c1)[C@@H]1CCCC[C@@H]1N1CCCC1`: the Potency entry is “inactive”.
`CC(=O)NC(SC(=S)N(CC(C)C)CC(C)C)C(Cl)(Cl)Cl` (stereo unspecified): the Potency result is “inactive”.
As to `Cc1ccc(OP(=O)(Nc2ccccn2)Oc2ccc(C)cc2)cc1`, the Potency entry is “inactive”.
With `COC(=O)c1cc2c(s1)N=C(c1ccccc1)N(C)P2(=O)N1CCOCC1` (stereo unspecified), the Potency entry was “inactive”.
On to `O=c1c2cc([N+](=O)[O-])ccc2[nH]c2c([N+](=O)[O-])cc([N+](=O)[O-])cc12`, for which the Potency entry is “inactive”.
Take `CN(C)C(=O)Oc1noc2ccccc12`: the Potency result is “inactive”.
As for `O=P1(Nc2nc3ccc(Cl)cc3s2)COc2ccccc2O1` (stereo unspecified), the Potency entry is “inactive”.
In the case of `CC(C)(C)C(=O)NC(Sc1ccccc1)C(Cl)(Cl)Cl` (stereo unspecified) it was “inactive”.
In the case of `C[C@H]1OP(=O)(Oc2ccccc2)C[C@@H]2O[C@@H]21` (stereo partly specified), the Potency result was “inactive”.
Consider `C[C@@H]1C=CCP(=O)(Oc2ccccc2)O1` (stereo partly specified), for which the Potency result was “inactive”.
With `CC(=O)Nc1ccc(Oc2c([N+](=O)[O-])cc([N+](=O)[O-])cc2[N+](=O)[O-])cc1` the entry was “inactive”.
`CC(=O)Nc1ccc([As](=O)(O)O)c(O)c1`: the Potency entry was “inactive”.
As for `CC(C)C(=O)NC(Sc1ccccc1)C(Cl)(Cl)Cl` (stereo unspecified), the Potency result was “inactive”.
In the case of `O=P(Nc1nccs1)(c1ccccc1)c1ccccc1` it was “inactive”; in that of `c1nnnn1CCn1cnnn1`, “inactive”; in that of `O=P(Nc1ccccn1)(c1ccc(Br)cc1)c1ccc(Br)cc1`, “inactive”.
Take `C[C@H]1OP(=O)(Oc2ccccc2)[C@H](O)[C@H](O)[C@H]1N=[N+]=[N-]` (stereo partly specified): the Potency entry was “inactive”.
With `O=P(Nc1nc2ccccc2s1)(c1ccccc1)c1ccccc1`, the Potency result is “inactive”.
For the molecule `O=[As](O)(c1ccccc1)c1ccc(O)cc1`, the Potency entry was “inactive”.
For `CC(=O)NC(SC(=S)N(C)C)C(Cl)(Cl)Cl` (stereo unspecified), the Potency result is “inactive”.
In the case of `O=[N+]([O-])c1ncn(CCn2cnc([N+](=O)[O-])n2)n1`, the Potency result was “inactive”.
`O=C(OC1CN2CCC1CC2)c1cccc(Cl)c1` (stereo unspecified): the Potency entry was “inactive”.
Regarding `C(Cc1nn[nH]n1)Cc1nn[nH]n1`, the Potency entry is “inactive”.
Take `Nc1ccc([As](=O)(O)c2ccc([N+](=O)[O-])cc2)cc1`: the Potency result was “inactive”.
